# Cyclic peptide permeability, from CycPeptMPDB

Source: CycPeptMPDB (Li et al. 2023), which took these values from Townsend et al. 2020, doi:10.26434/chemrxiv.13335941.v1.

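Conditions beyond the assay type are not listed; see the original paper. The list need not hold all peptides of the study. Entries at the database's floor value (log10 P of -10) are not listed.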

PAMPA is the parallel artificial membrane permeability assay, which has no cells and reads passive diffusion. P is given in units of 10^-6 cm/s (from log10 values with two decimals); larger means faster passage.

structure (SMILES)	PAMPA (10^-6 cm/s)
CC(C)C[C@@H]1NC(=O)[C@@H]2CCCN2C(=O)CN(Cc2ccccc2)C(=O)[C@H](CC(C)C)NC(=O)[C@@H](C)N(C)C(=O)[C@H](Cc2ccccc2)NC1=O	6
CC(C)C[C@H]1NC(=O)[C@@H]2CCCN2C(=O)CN(Cc2ccccc2)C(=O)[C@@H](CC(C)C)NC(=O)[C@H](C)NC(=O)[C@H](Cc2ccccc2)NC1=O	0.79
CC(C)C[C@@H]1NC(=O)[C@H](C)NC(=O)[C@@H]2CCCN2C(=O)[C@H](Cc2ccccc2)NC(=O)[C@@H](CC(C)C)NC(=O)[C@@H]2CCCN2C(=O)CN(Cc2ccccc2)C1=O	0.4
CC(C)C[C@@H]1NC(=O)[C@H](CC(C)C)N(C)C(=O)C[C@H](Cc2ccccc2)NC(=O)[C@H]2CCCN2C(=O)[C@H](Cc2ccccc2)NC(=O)[C@H](CC(C)C)N(C)C(=O)[C@@H]2CCCN2C1=O	6.8
CC(C)C[C@@H]1NC(=O)[C@@H](CC(C)C)N(C)C(=O)[C@H](C)NC(=O)[C@H]2CCCN2C(=O)[C@H](Cc2ccccc2)NC(=O)[C@H](CC(C)C)N(C)C(=O)[C@@H]2CCCN2C1=O	4.4
CC(C)C[C@@H]1C(=O)N[C@@H](Cc2ccccc2)C(=O)N2CCC[C@@H]2C(=O)N[C@@H](Cc2ccccc2)CC(=O)N(C)[C@@H](CC(C)C)C(=O)N(C)[C@@H](CC(C)C)C(=O)N2CCC[C@H]2C(=O)N1C	6.3
CC(C)C[C@@H]1C(=O)N[C@@H](Cc2ccccc2)C(=O)N[C@H](C)C(=O)N(C)[C@@H](CC(C)C)C(=O)N(Cc2ccccc2)CC(=O)N2CCC[C@@H]2C(=O)N1C	5.6
CC(C)C[C@@H]1NC(=O)[C@H]2CCCN2C(=O)[C@@H](CC(C)C)NC(=O)[C@H](CC(C)C)N(C)C(=O)[C@H](C)NC(=O)[C@H](Cc2ccccc2)NC1=O	0.62
CC(C)C[C@@H]1C(=O)N2CCC[C@H]2C(=O)N[C@H](CC(C)C)C(=O)N[C@@H](Cc2ccccc2)C(=O)N2CCC[C@@H]2C(=O)N[C@@H](Cc2ccccc2)CC(=O)N[C@H](CC(C)C)C(=O)N1C	1.5
CC(C)C[C@H]1NC(=O)C[C@H](Cc2ccccc2)NC(=O)[C@H](Cc2ccccc2)NC(=O)[C@H](CC(C)C)N(C)C(=O)[C@H]2CCCN2C(=O)[C@H](CC(C)C)N(C)C1=O	3.2
CC(C)C[C@H]1NC(=O)[C@H]2CCCN2C(=O)[C@H](CC(C)C)N(C)C(=O)[C@@H](CC(C)C)NC(=O)C[C@H](Cc2ccccc2)NC(=O)[C@H](Cc2ccccc2)NC1=O	2.5
CC(C)C[C@@H]1C(=O)N[C@H](CC(C)C)C(=O)N2CCC[C@H]2C(=O)N(C)[C@@H](CC(C)C)C(=O)N[C@@H](Cc2ccccc2)C(=O)N2CCC[C@@H]2C(=O)N(C)[C@@H](C)C(=O)N1C	5.4
CC(C)C[C@@H]1C(=O)N(C)[C@@H](CC(C)C)C(=O)N2CCC[C@@H]2C(=O)N[C@H](CC(C)C)C(=O)N[C@@H](Cc2ccccc2)C(=O)N2CCC[C@@H]2C(=O)N(C)[C@@H](C)C(=O)N1C	4
CC(C)C[C@H]1C(=O)N[C@@H](Cc2ccccc2)C(=O)N2CCC[C@@H]2C(=O)N(C)[C@@H](C)C(=O)N(C)[C@@H](CC(C)C)C(=O)N(Cc2ccccc2)CC(=O)N2CCC[C@@H]2C(=O)N1C	2.4

Repeated from above, the 2 entries with the highest PAMPA:

| structure (SMILES) | PAMPA (10^-6 cm/s) |
|---|---|
| CC(C)C[C@@H]1NC(=O)[C@H](CC(C)C)N(C)C(=O)C[C@H](Cc2ccccc2)NC(=O)[C@H]2CCCN2C(=O)[C@H](Cc2ccccc2)NC(=O)[C@H](CC(C)C)N(C)C(=O)[C@@H]2CCCN2C1=O | 6.8 |
| CC(C)C[C@@H]1C(=O)N[C@@H](Cc2ccccc2)C(=O)N2CCC[C@@H]2C(=O)N[C@@H](Cc2ccccc2)CC(=O)N(C)[C@@H](CC(C)C)C(=O)N(C)[C@@H](CC(C)C)C(=O)N2CCC[C@H]2C(=O)N1C | 6.3 |